From PubChem BioAssay AID1825 (The Scripps Research Institute Molecular Screening Center, 2009) come the findings set out here.

Each structure is given as a SMILES string. Only a part is listed here, and it is no random draw. Activity calls are given as the source filed them. No stated cut-off is given here; in the data, active means inhibition above about 22%; inactive means the rest.

The test in a line: IEC-6 cell viability reduction – luminescence, cytotoxicity control for KLF5 inhibitor project, primary screen (AID 1825).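 Further: 0% = plate median of test compound wells and 100% = cytotoxic reference compound wells.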 The settings on record: IEC-6 cytotoxicity, at 5 µM, active compounds read high.
The inhibition is the relative decrease from the control value, in per cent. With `CS(=O)(=O)c1ccc(Cl)c(NC(=O)COC(=O)C(O)(c2ccccc2)c2ccccc2)c1`, the inhibition was inactive: -3%.

Turning to `O=C(OC1CN2CCC1CC2)c1ccc(Cl)cc1` (stereo not given), the inhibition was inactive: -6.2%.

`Cc1cccc(OCC(=O)OC2CN3CCC2CC3)c1` (stereo not given): the inhibition was inactive: 4.5%.

Regarding `O=[As](O)(c1cccc(O)c1)c1cccc(O)c1`, the inhibition was inactive: 2.2%.

Regarding `O=[N+]([O-])c1ccc2c(c1)nnn2O`, the inhibition was inactive: 1%.

For `CCOP1(=S)c2c(C)nn(CCC#N)c2N=C(c2ccc(F)cc2)N1C` (stereo not given), the inhibition was inactive: -2.1%.

Take `CS(=O)(=O)c1cc([N+](=O)[O-])c2no[n+]([O-])c2c1`: the inhibition was inactive: 0%.

On to `CCOP1(=S)c2c(C)nn(CCC#N)c2N=C(c2ccccc2F)N1C` (stereo not given), for which the inhibition was inactive: 0.2%.

With `O=P(Nc1nccs1)(Oc1ccccc1)Oc1ccccc1`, the inhibition is inactive: -0.3%.

With `O=P(Nc1nccs1)(c1ccccc1)c1nc2ccccc2s1` (stereo not given), the inhibition was inactive: -5.6%.

For the compound `O=C(O)COc1ccc([As](=O)(O)O)cc1[N+](=O)[O-]`, the inhibition was inactive: 2.4%.

`Nc1ccccc1[As](=O)(O)c1ccccc1`: the inhibition is inactive: 0.6%.

Turning to `CC(C)c1ccc(OP(=O)(Nc2ccccn2)Oc2ccccc2F)cc1` (stereo not given), the inhibition was inactive: 0.8%.

As for `ClCCSc1nnc(-c2cccnc2)o1`, the inhibition is inactive: -0.3%.

Take `CC(C)NC(=O)NP(=O)(Oc1ccccc1)Oc1ccccc1`: the inhibition is inactive: -3.1%.

For `CCN(CC)C(=S)SC(NC=O)C(Cl)(Cl)Cl` (stereo not given), the inhibition is inactive: 4.4%.

Regarding `O=[N+]([O-])c1cc([N+](=O)[O-])c(-c2ccn[nH]2)s1`, the inhibition is inactive: -1%.

In the case of `O=[As](O)(c1ccc(O)cc1)c1ccccc1O`, the inhibition was inactive: -0.9%.

Take `C[As](=O)(O)c1cccc(C(=O)O)c1`: the inhibition was inactive: 0.25%.

For `Cc1ccc2nc3c(c(C)c2c1)CC(C(Cl)Cl)S3` (stereo not given), the inhibition is inactive: -1.8%.

As for `Cc1ccc(OP(=O)(Nc2ccc([N+](=O)[O-])cn2)Oc2ccc(C)cc2)cc1`, the inhibition is inactive: -0.6%.

On to `COc1ccc(N/C(=N/P(=O)(N2CCOCC2)N2CCOCC2)N2CCOCC2)cc1`, for which the inhibition was inactive: -3.3%.

`O=C(OC1CN2CCC1CC2)C12CC3CC(CC(C3)C1)C2` (stereo not given): the inhibition was inactive: 3.8%.

For the compound `Cc1cc(=O)[nH]c(N[N+](=O)[O-])n1`, the inhibition is inactive: -7%.

For `Cc1c2c(nc3ccccc13)SC(C(Cl)Cl)C2` (stereo not given), the inhibition is inactive: -15%.

Regarding `COc1ccc2nc(NP(=O)(c3ccccc3)c3ccccc3)sc2c1`, the inhibition is inactive: 2.8%.

For the compound `COc1cc(I)ccc1[As](=O)(O)O`, the inhibition was inactive: -2.4%.

As for `CCOC(=O)c1ccc(NC(=O)C(C)(CCl)SC)cc1` (stereo not given), the inhibition was inactive: -8.8%.

Consider `O=C(OC1CN2CCC1CC2)c1cccc([N+](=O)[O-])c1` (stereo not given), for which the inhibition is inactive: 2.7%.

For the compound `CCC(C)N(CC(C)C)C(=S)SC(NC(C)=O)C(Cl)(Cl)Cl` (stereo not given), the inhibition was inactive: 0.8%.

As to `COP1(=S)c2c(C)nn(CCC#N)c2N=C(c2ccc(F)cc2)N1C` (stereo not given), the inhibition was inactive: -0.4%.

As for `O=C(COc1ccccc1)OC1CN2CCC1CC2` (stereo not given), the inhibition is inactive: 1.8%.

For `O=C(Nc1ccncc1[N+](=O)[O-])c1ccc([N+](=O)[O-])cc1[N+](=O)[O-]`, the inhibition was inactive: -3.3%.

For the compound `CCOC(=O)Nc1cccc([As](=O)(O)O)c1`, the inhibition was inactive: 10.8%.

On to `O=[N+]([O-])c1ccc(Nc2ccc(Oc3ccc([N+](=O)[O-])cc3[N+](=O)[O-])cc2)c([N+](=O)[O-])c1`, for which the inhibition was inactive: -6.05%.

For the compound `Cc1cc(SC(NC=O)C(Cl)(Cl)Cl)ncn1` (stereo not given), the inhibition is inactive: 1.1%.

In the case of `O=P(Nc1ccccn1)(c1cccc2ccccc12)c1cccc2ccccc12`, the inhibition was inactive: -8.5%.

As to `CCOC(=O)Nc1ccc([As](=O)(O)O)c(O)c1`, the inhibition is inactive: 4.7%.

Take `CCCCOc1ccc(C(=O)NCC2(N3CCCCC3)CCCCC2)cc1OC`: the inhibition was inactive: 0.2%.

As to `Cc1cc(SC(NC(=O)c2ccccc2)C(Cl)(Cl)Cl)nc(C(C)C)n1` (stereo not given), the inhibition is inactive: -0.3%.
